Source: publication PMC6755983

By UniProt entry, the sequences of proteins in these tests, tags left out. Where a name states a change or a piece, a line headed by the entry shows the natural chain unless it says otherwise.
UniProt O08556: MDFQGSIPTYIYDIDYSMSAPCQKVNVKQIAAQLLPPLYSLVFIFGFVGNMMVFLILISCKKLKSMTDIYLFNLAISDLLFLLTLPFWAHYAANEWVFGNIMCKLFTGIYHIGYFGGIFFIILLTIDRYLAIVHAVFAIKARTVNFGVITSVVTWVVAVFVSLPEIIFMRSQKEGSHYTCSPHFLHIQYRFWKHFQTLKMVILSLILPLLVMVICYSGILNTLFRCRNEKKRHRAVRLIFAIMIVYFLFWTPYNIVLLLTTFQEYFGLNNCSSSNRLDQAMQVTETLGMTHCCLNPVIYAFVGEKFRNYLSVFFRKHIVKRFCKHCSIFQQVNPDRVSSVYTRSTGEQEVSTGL

Biological target: CCR5 receptor on rat bone marrow-derived macrophages (rat (endogenous in bone marrow-derived macrophages)) (UniProt O08556)

- macrophage migration towards GH3-Aip-KD-conditioned media, macrophages treated with maraviroc (200 nM, 24 h) against vehicle: 50%
Substance: CCL5 secreted into GH3-Aip-KD cell-conditioned media (from UniProt P50231 25-92) (ligand)
